Molecules are shown by their SMILES. Only a part is listed here, and it is no random draw. Calls of active or inactive are those of the source.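 The calls were made as follows: active = inhibition of at least 40% at 20 µM, with no more than 30% in the related APOBEC3A deaminase screen; inactive = the rest.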

Sequences of proteins named here, by UniProt entry; tags and fusion partners are left off. A change or cut given only in a name is not applied to a line headed by its entry.
UniProt Q9HC16: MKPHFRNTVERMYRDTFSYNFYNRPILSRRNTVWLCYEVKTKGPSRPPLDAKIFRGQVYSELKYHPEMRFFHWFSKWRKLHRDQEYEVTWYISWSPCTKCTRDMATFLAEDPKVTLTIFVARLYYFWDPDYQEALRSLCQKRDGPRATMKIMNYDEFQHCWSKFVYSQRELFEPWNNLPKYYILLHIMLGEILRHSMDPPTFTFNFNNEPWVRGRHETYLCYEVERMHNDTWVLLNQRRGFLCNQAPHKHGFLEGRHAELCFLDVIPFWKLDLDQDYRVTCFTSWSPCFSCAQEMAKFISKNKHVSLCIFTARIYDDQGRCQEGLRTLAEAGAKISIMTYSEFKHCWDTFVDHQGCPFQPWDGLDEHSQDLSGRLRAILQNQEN

For this assay, the target named is DNA dC->dU-editing enzyme APOBEC-3G (Homo sapiens) (UniProt Q9HC16). Nature of the assay: APOBEC3G DNA deaminase inhibitors, primary screen, biochemical, fluorescence, single-stranded DNA substrate, uHTS (AID 493012).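 Also: plate controls were DMSO wells with A3G for no effect and wells lacking A3G enzyme for full effect.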 The following applies: recombinant A3G, ssDNA deamination FAM/TAMRA fluorescence; at 20 µM; stronger effect = higher value.
What is called inhibition is the change of the read-out against control, counted positive when it falls. For `COc1ccccc1OP(=O)(Nc1ccc(C)cn1)Oc1ccccc1OC`, the inhibition was inactive: -5.08%.

On to `Cc1ccc(OP(=O)(Nc2nccs2)Oc2ccc(C)cc2)cc1`, for which the inhibition is inactive: -8.61%.

As to `CN1CCCC(OC(=O)C(c2ccccc2)c2ccccc2)C1` (centres undefined), the inhibition is inactive: -5.23%.

`Clc1ccc(Cl)c(NC2=NCC(CBr)S2)c1` (centres undefined): the inhibition is inactive: -6.8%.

Consider `NC(=O)c1cc([N+](=O)[O-])cc([N+](=O)[O-])c1N`, for which the inhibition was inactive: -5.62%.

On to `CN(C(=O)Cc1ccc(Cl)c(Cl)c1)[C@H]1CCCC[C@H]1N1CCCC1`, for which the inhibition was inactive: -0.325%.

For `Cc1ccc(N/C(=N/P(=O)(N2CCOCC2)N2CCOCC2)N2CCOCC2)cc1`, the inhibition is inactive: -4.31%.

For `Nc1cc(N)c2nonc2c1[N+](=O)[O-]`, the inhibition was inactive: -1.7%.

Turning to `CC(C)CC(=O)NC(Sc1ccc(Cl)cc1)C(Cl)(Cl)Cl` (centres undefined), the inhibition was inactive: -5.09%.

With `Oc1ccccc1CNc1ccccn1`, the inhibition is inactive: -5.99%.

Take `O=C(NC(Sc1ccncn1)C(Cl)(Cl)Cl)c1ccccc1` (centres undefined): the inhibition was inactive: 26.4%.

Turning to `Cc1c2non([O-])c-2c(C)[n+](=O)[n+]1[O-]`, the inhibition was inactive: -0.912%.

In the case of `Cc1cc(SC(NC(=O)c2ccc(F)cc2)C(Cl)(Cl)Cl)ncn1` (centres undefined), the inhibition is inactive: 18.2%.

Consider `CCOP(=O)(Nc1ccccc1)OCC`, for which the inhibition was inactive: 5.87%.

With `Cc1ccc(NP(=O)(Oc2ccccc2F)Oc2ccccc2F)nc1`, the inhibition was inactive: -3.6%.

In the case of `CN(C(=O)Cc1ccc(Cl)c(Cl)c1)[C@H]1CCCC[C@@H]1N1CCCC1`, the inhibition is inactive: -9.31%.

For `CC(=O)Nc1ccc([As](=O)(O)O)cc1`, the inhibition was inactive: -2.03%.

Turning to `O=C(O)c1ccccc1[As](=O)(O)O`, the inhibition is inactive: 23.5%.

Regarding `O=P(Nc1nc2ccc(Cl)cc2s1)(c1ccccc1)c1ccccc1`, the inhibition was inactive: -4.66%.

As to `CCN(N=Nc1nonc1N)c1nonc1N`, the inhibition is inactive: -3.31%.

For `O=[N+]([O-])c1cc([N+](=O)[O-])c(CCN2CCOCC2)c([N+](=O)[O-])c1`, the inhibition is inactive: -0.003%.

Turning to `O=C(Nc1cc([As](=O)(O)O)ccc1O)c1ccccc1`, the inhibition is inactive: -7.12%.

On to `O=[N+]([O-])c1cccc(NC2=NCC(CBr)S2)c1` (centres undefined), for which the inhibition was inactive: -8.53%.

`CC(C)(C)C(=O)NC(Sc1ccncn1)C(Cl)(Cl)Cl` (centres undefined): the inhibition was inactive: 14.8%.

Consider `O=[N+]([O-])c1ncn(CCn2ncnc2[N+](=O)[O-])n1`, for which the inhibition was inactive: -8.45%.

In the case of `O=[N+]([O-])c1cccc2n[nH]nc12`, the inhibition was inactive: -1.38%.

As to `CC(=O)N1C2C3N(C(C)=O)C1C1N(C(C)=O)C(C(N1C(C)=O)N3C(C)=O)N2C(C)=O`, the inhibition is inactive: -4.49%.

As to `Cc1ccc(NP(=O)(Oc2ccccc2)Oc2ccccc2)nc1`, the inhibition is inactive: -0.54%.

Take `CCc1nc2c(n1)c1c(non1O)c1c2no[n+]1[O-]`: the inhibition was inactive: -5.9%.

Take `O=[N+]([O-])c1cc([N+](=O)[O-])c(CCNc2ccccc2)c([N+](=O)[O-])c1`: the inhibition is inactive: 0.621%.

As to `COc1ccc(C2=NCC(CBr)S2)cc1` (centres undefined), the inhibition is inactive: -1.05%.

For `CC(C)=N/N=C(\N)N[N+](=O)[O-]`, the inhibition is inactive: 0.863%.

As to `CN(C)C(=O)OCCc1n(C)cc[n+]1C`, the inhibition was inactive: -6.64%.

Regarding `CC1CCN(C(=O)Oc2c(Cl)cc(Cl)c3cccnc23)CC1`, the inhibition was inactive: 2.63%.

Turning to `Nc1ccc([As](=O)(O)c2ccc(N)cc2)cc1`, the inhibition was inactive: 3.22%.

`C[N+]1=C2C=CC=CC=C2SC12C([N+](=O)[O-])=CC([N+](=O)[O-])=C[C-]2[N+](=O)[O-]` (centres undefined): the inhibition was inactive: 58.6%.

For the molecule `CCN(/C(=N/P(=O)(N1CCOCC1)N1CCOCC1)N1CCOCC1)c1ccc(OC)cc1`, the inhibition was inactive: -4.3%.

`c1nnnn1CCn1cnnn1`: the inhibition was inactive: -5.35%.

In the case of `CC(C)C(=O)NC(Sc1ccccc1)C(Cl)(Cl)Cl` (centres undefined), the inhibition is inactive: -4%.

`O=P(Nc1nccs1)(c1ccccc1)c1ccccc1`: the inhibition is inactive: 1.01%.

In the case of `O=P(Nc1nc2ccccc2s1)(c1ccccc1)c1ccccc1`, the inhibition is inactive: -1.28%.

Regarding `C[C@H]1OP(=O)(Oc2ccccc2)[C@H](O)[C@H](O)[C@H]1N=[N+]=[N-]` (some centres undefined), the inhibition was inactive: -9.12%.

With `O=P(Nc1ccccn1)(c1ccc(Br)cc1)c1ccc(Br)cc1`, the inhibition was inactive: -7.79%.

In the case of `CN(C)C1(CNC(=O)c2ccc(Cl)c(S(N)(=O)=O)c2)CCCCC1`, the inhibition was inactive: -3.48%.

Take `C(Cc1nn[nH]n1)Cc1nn[nH]n1`: the inhibition is inactive: -4.08%.

On to `O=C(OC1CN2CCC1CC2)c1cccc(Cl)c1` (centres undefined), for which the inhibition is inactive: -1.54%.

For the molecule `O=[N+]([O-])c1ncn(CCn2cnc([N+](=O)[O-])n2)n1`, the inhibition was inactive: -2.08%.

`CCNC(=S)/N=C(\N)N[N+](=O)[O-]`: the inhibition is inactive: -12.1%.

With `O=C(NC1CCS(=O)(=O)C1)NP(=S)(Oc1ccccc1)Oc1ccccc1` (centres undefined), the inhibition was inactive: -2.26%.

As for `c1ccc(-c2nn[nH]n2)c(-c2nn[nH]n2)c1`, the inhibition was inactive: -4.91%.

Consider `CCOC(=O)NC(Sc1ccccc1)C(Cl)(Cl)Cl` (centres undefined), for which the inhibition is inactive: -0.313%.

As to `Cc1ccc(NP(=O)(Oc2cccc(C)c2)Oc2cccc(C)c2)nc1`, the inhibition was inactive: -7.79%.

Consider `CC(NC(=O)COC(=O)C(O)(c1ccccc1)c1ccccc1)c1ccccc1` (centres undefined), for which the inhibition was inactive: 6.52%.

For `Cc1ccccc1OP(=O)(Nc1ccccn1)Oc1ccccc1C`, the inhibition is inactive: 1.46%.

Consider `CN(C)C(=O)Oc1noc2ccccc12`, for which the inhibition is inactive: 1.74%.

For `COC(=O)c1cc2c(s1)N=C(c1ccccc1)N(C)P2(=O)N1CCOCC1` (centres undefined), the inhibition is inactive: 22.7%.

Regarding `CC(=O)NC(SC(=S)N(CC(C)C)CC(C)C)C(Cl)(Cl)Cl` (centres undefined), the inhibition was inactive: -8.84%.

Take `O=C(OC1CN2CCC1CC2)c1ccccc1` (centres undefined): the inhibition is inactive: -9.56%.

On to `CCC(=O)N1C2C3N(C(=O)CC)C1C1N(C(=O)CC)C(C(N1C(=O)CC)N3C(=O)CC)N2C(=O)CC`, for which the inhibition is inactive: 5.85%.

As to `CC(C)(C)C(=O)NC(Sc1ccccc1)C(Cl)(Cl)Cl` (centres undefined), the inhibition is inactive: 8.31%.

For the molecule `O=P1(Nc2nc3ccc(Cl)cc3s2)COc2ccccc2O1` (centres undefined), the inhibition is inactive: -3.5%.

Regarding `CCOc1ccc(C2=NCC(CBr)S2)cc1` (centres undefined), the inhibition was inactive: -10.4%.

As for `CC(=O)Nc1ccc([As](=O)(O)O)c(O)c1`, the inhibition is inactive: -4.37%.

Take `CC(=O)Nc1ccc(Oc2c([N+](=O)[O-])cc([N+](=O)[O-])cc2[N+](=O)[O-])cc1`: the inhibition was inactive: -0.951%.

For `CC(=O)c1ccc(N2CC2c2ccncc2)cc1` (centres undefined), the inhibition is inactive: -2.7%.

On to `Cc1ccccc1CN(C)C(=O)COC(=O)C(O)(c1ccccc1)c1ccccc1`, for which the inhibition is inactive: -7.91%.

With `C[C@H]1OP(=O)(Oc2ccccc2)C[C@@H]2O[C@@H]21` (some centres undefined), the inhibition is inactive: -8.07%.

In the case of `C[C@@H]1C=CCP(=O)(Oc2ccccc2)O1` (some centres undefined), the inhibition was inactive: -2.34%.

Take `Cc1cccc(OCC(=O)OC2CN3CCC2CC3)c1` (centres undefined): the inhibition was inactive: -1.93%.

`O=[As](O)(c1cccc(O)c1)c1cccc(O)c1`: the inhibition is inactive: -3.92%.

As to `O=[As](O)(O)c1cccnc1`, the inhibition was inactive: -0.86%.

`COc1cc(C(=O)NCC2(N3CCOCC3)CCCCC2)cc(Cl)c1OC(C)C`: the inhibition is inactive: 0.217%.

For `CS(=O)(=O)c1ccc(Cl)c(NC(=O)COC(=O)C(O)(c2ccccc2)c2ccccc2)c1`, the inhibition was inactive: -1.02%.

With `O=C(OC1CN2CCC1CC2)c1ccc(Cl)cc1` (centres undefined), the inhibition was inactive: -2.71%.

As to `COc1cc(C2NCCC3(OCCO3)C2(C)C)cc(OC)c1OC` (centres undefined), the inhibition was inactive: -0.347%.

Take `CCOP(=O)(Nc1cccc2ccccc12)OCC`: the inhibition is inactive: -4.71%.

For `CCCOP(=S)(Nc1nc(N)cc(=O)[nH]1)OCCC`, the inhibition is inactive: -8.07%.

Turning to `Cc1ccc(NCCc2c([N+](=O)[O-])cc([N+](=O)[O-])cc2[N+](=O)[O-])cc1`, the inhibition was inactive: 0.497%.

On to `Nc1ccccc1[As](=O)(O)c1ccccc1`, for which the inhibition was inactive: -9.46%.

Turning to `O=C(O)COc1ccc([As](=O)(O)O)cc1[N+](=O)[O-]`, the inhibition is inactive: 3.6%.

As to `CS(=O)(=O)c1cc([N+](=O)[O-])c2no[n+]([O-])c2c1`, the inhibition was active: 77.3%.

With `CCOP1(=S)c2c(C)nn(CCC#N)c2N=C(c2ccccc2F)N1C` (centres undefined), the inhibition was inactive: -5.98%.

For the molecule `O=P(Nc1nccs1)(Oc1ccccc1)Oc1ccccc1`, the inhibition is inactive: -1.68%.

`O=P(Nc1nccs1)(c1ccccc1)c1nc2ccccc2s1` (centres undefined): the inhibition is active: 91.5%.

As for `O=[N+]([O-])c1ccc2c(c1)nnn2O`, the inhibition is inactive: -5.88%.

On to `CN(C)C(=O)c1cc([N+](=O)[O-])cc2c1-c1c(cc([N+](=O)[O-])cc1[N+](=O)[O-])C2=O`, for which the inhibition was inactive: -5.03%.

In the case of `CN(C(=O)Cc1ccc(Cl)c(Cl)c1)[C@H]1CC[C@@]2(CCCO2)C[C@@H]1N1CCCC1`, the inhibition is inactive: -10.3%.

As to `N#CCCN(C(=O)COC(=O)C(O)(c1ccccc1)c1ccccc1)c1ccc(F)cc1`, the inhibition was inactive: -12.8%.

For `CCOP1(=S)c2c(C)nn(CCC#N)c2N=C(c2ccc(F)cc2)N1C` (centres undefined), the inhibition was inactive: -6.62%.

As to `CN(C(=O)Cc1ccccc1)[C@@H]1CC[C@]2(CCCO2)C[C@H]1N1CCCC1`, the inhibition is inactive: -5.83%.

On to `NC(=O)Nc1ccc([As](=O)(O)O)cc1`, for which the inhibition was inactive: 8.37%.

Turning to `O=C(/C=C/c1ccccc1)OC1CN2CCC1CC2` (centres undefined), the inhibition was inactive: -6.01%.

Turning to `CN(C)C1(CNC(=O)c2ccc(S(C)(=O)=O)cc2)CCCCC1`, the inhibition is inactive: -4.39%.

For `Cc1nn(-c2ccccc2)c2c1P(=O)(N1CCOCC1)N(C)C(c1ccccc1)=N2` (centres undefined), the inhibition is inactive: -0.838%.

Take `CC1CCC(C(C)C)C(OP(=O)(Nc2ccccn2)c2ccccc2)C1` (centres undefined): the inhibition is inactive: -9.69%.

On to `Cc1ccc(C(=O)OC2CN3CCC2CC3)cc1` (centres undefined), for which the inhibition is inactive: -1.65%.

`O=[As](O)(c1cccs1)c1cccs1`: the inhibition is inactive: -5.54%.

`Cc1ccc(OCC(=O)OC2CN3CCC2CC3)cc1` (centres undefined): the inhibition was inactive: -2.04%.

In the case of `O=P1(Nc2ccc(Br)cn2)COc2ccccc2OC1`, the inhibition is inactive: -4.56%.

The record behind these values is PubChem BioAssay AID493012 (Sanford-Burnham Center for Chemical Genomics, 2011).
